# Results: PubChem BioAssay AID2451 (National Center for Advancing Translational Sciences (NCATS), 2010)
# Amino acid sequences for entries named in this document (tags omitted). A change or cut given only in a name is not applied to a line headed by its entry.
# UniProt A8B2U2: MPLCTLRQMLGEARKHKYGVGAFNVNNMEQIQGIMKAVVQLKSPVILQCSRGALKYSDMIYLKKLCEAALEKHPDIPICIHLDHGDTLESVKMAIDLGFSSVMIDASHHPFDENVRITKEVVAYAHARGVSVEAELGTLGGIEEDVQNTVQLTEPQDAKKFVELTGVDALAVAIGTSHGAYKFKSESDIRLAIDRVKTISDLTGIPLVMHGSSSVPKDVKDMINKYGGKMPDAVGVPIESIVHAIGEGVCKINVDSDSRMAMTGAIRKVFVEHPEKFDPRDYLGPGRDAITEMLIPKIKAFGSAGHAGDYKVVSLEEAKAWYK
# The entries are a selection whose mix differs from that of the whole data set. Inconclusive results are not listed. The source made the active and inactive calls. Calls follow the shape of the dose curve; as a rule, active = well fitted inhibition curve with a large enough effect; inconclusive = small, poorly fitted or top-dose-only effect, or effect the other way; inactive = flat fitted curve, though single readings scatter.
# Biological target: Fructose-bisphosphate aldolase (Giardia intestinalis (strain ATCC 50803 / WB clone C6)) (UniProt A8B2U2)
# Experiment: qHTS Assay for Inhibitors of Fructose-1,6-bisphosphate Aldolase from Giardia Lamblia; also: nearly all actives have a fitted effect of over 55% in size
# Details: purified Giardia FBPA
# From the text: Assay Provider: Osnat Herzberg, University of Maryland
# The objective of this project is to obtain compounds that inhibit Giardia lamblia growth. G. lamblia is a human pathogen which afflicts impoverished nations; it is the most common cause of outbreaks of diarrhea in the United States. During the course of our study of potential drug targets in Giardia, we have identified the Class II (Zn2+ functions in electrophilic catalysis) fructose-1,6-bisphosphate aldolase (FBPA) as an excellent candidate for drug targeting. FBPA is a key glycolytic pathway enzyme, essential for G. lamblia survival. The human FBPA belongs to the Class I aldolases, which have a different substrate binding site structure and a radically different catalytic mechanism (employing a lysine-Schiff base intermediate). […]
# A glyceraldehyde-3-phosphate dehydrogenase/triose phosphate isomerase/NAD/arsenate coupled assay was adapted to the 1536-well HTP format for use in the primary screen. This was done by coupling it to a diaphorase/resazurin/resorufin reaction that can be monitored by fluorescence (excitation, 544 nm; emission, 590 nm). Compounds identified in this screen will be further evaluated by coupling the glycerol-3-phosphate/triose phosphate isomerase/NADH assay to a phenazine methosulfate/tetranitroblue tetrazolium color reaction. […]
# 6,Detector,525 nm/598 nm (Fluorescence),ViewLux Fluorescence Read (Read 1) […]
# Potency is read from the fitted curve at half-maximal effect.
row,SMILES,Potency
1,CC1(C)N([O-])c2cc([N+](=O)[O-])ccc2[N+]1=O,active: 14.1 µM
